Measurements published in patent publication US20130089512A1, “HETEROARYL IMIDAZOLONE DERIVATIVES AS JAK INHIBITORS” (priority 2010, published 2013).

Protein sequences, listed by entry. Tags and fused reporters are not part of them. Residues count along the entry.
UniProt P23458, 850-1154: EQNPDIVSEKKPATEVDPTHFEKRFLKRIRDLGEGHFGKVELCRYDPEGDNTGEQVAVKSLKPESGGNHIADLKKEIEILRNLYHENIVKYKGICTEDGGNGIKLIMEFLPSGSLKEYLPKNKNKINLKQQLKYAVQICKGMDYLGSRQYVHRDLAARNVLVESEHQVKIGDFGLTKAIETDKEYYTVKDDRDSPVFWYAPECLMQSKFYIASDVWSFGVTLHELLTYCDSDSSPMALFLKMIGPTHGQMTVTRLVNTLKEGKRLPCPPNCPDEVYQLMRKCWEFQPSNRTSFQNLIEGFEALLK

Molecular target: human JAK1 (aa 850-1154) (Homo sapiens, UniProt P23458)
Assay: In vitro JAK kinase assay (TR-FRET), JAK1

O=c1[nH]c2cnc(-c3cnc4ccc(F)cn34)nc2n1[C@H]1CC[C@H](O)CC1 [Example 48, 2-(6-Fluoroimidazo[1,2-a]pyridin-3-yl)-9-((1r,4r)-4-hydroxycyclohexyl)-7H-purin-8(9H)-one]
IC50: 100 to 1000 nM
